These are literature values, as cited in patent US20050042293A1, “Polymeric systems for drug delivery and uses thereof” (The University of British Columbia, priority 1997, published 2005).

For the data set the following is noted: water from pH 4.5 to 7.0; cited from earlier work.

Regarding Human insulin, the “solubility in water (in words)” value is recorded as “practically insoluble in water”.
